Patent US20240408226A1, “ANTIBODY DRUG CONJUGATE INTERMEDIATE CONTAINING SN38 AND ITS PREPARATION METHOD” (priority 2021, published 2024)
Marks after values point to notes of the source that are not given here.

Key:
[1] = tested on: HER2-positive metastatic breast cancer; settings: 99 patients; cited from earlier work
[2] = tested on: NCI-N87 cells; assay: Inhibitory effect on NCI-N87 cells (CCK-8); format: cell-based; settings: ADC-1 group vs ADC-17 group
[3] = tested on: BT474 cells; assay: Inhibitory effect of anti-Her2-drug conjugates on in situ breast cancer (BT474 in mammary fat pads); format: in vivo, female BALB/c nude mice; settings: for Tumor volume (mm^3) D 21: D 21, BT474 tumours

Substance: Enhertu
- disease control rate [1]: 93.9%
- objective remission rate [1]: 54.5%

Substance: ADC-17: linker and toxin corresponding to CL2A-SN38, coupled with Heceptin; control ADC [reference compound]
- Inhibitory effect on NCI-N87 cells (comparison in words) [2]: comparable inhibitory effect
- Inhibition of BT474 tumor growth ([3]; 5 mg/kg intravenously once a week): significantly inhibited the BT474 tumor growth with comparable effects
- Tumor volume (mm^3) D 1 ([3]; D 1, BT474 tumours, 5 mg/kg intravenously once a week): 67.95 ± 15.73 mm^3
- Tumor volume (mm^3) D 21 ([3]; 5 mg/kg intravenously once a week, 5 mg/kg): 49.17 ± 13.29** mm^3
- Tumor volume (mm^3) D 21 ([3]; 5 mg/kg intravenously once a week, listed as control group 2, 5 mg/kg): 49.17±13.29 mm^3
- Weight (g) D 1 ([3]; body weight of mice, D 1, 5 mg/kg intravenously once a week): 18.73 ± 0.78 g
- Weight (g) D 21 ([3]; body weight of mice, D 21, 5 mg/kg intravenously once a week): 20.36 ± 0.90 g
- Body weight compared with control group 1 ([3]; end of the experiment, vs normal saline): no significant difference in body weight
